Source: publication PMC5962642, “Dynamic imaging of adaptive stress response pathway activation for prediction of drug induced liver injury” (Archives of Toxicology, 2018)

Columns and labels:
[1] = tested on: CHOP-GFP (ER stress/UPR response); assay: HepG2 CHOP-GFP BAC reporter, live cell confocal imaging (ER stress/UPR); assay type: cell-based, Human; conditions: order of responses in 24 h; 100× C-max printed for nimesulide, rifampicin, oxytetracycline
[2] = tested on: Srxn1-GFP (oxidative stress); assay: HepG2 Srxn1-GFP BAC reporter, live cell confocal imaging (oxidative stress); assay type: cell-based, Human; conditions: order of responses in 24 h; 100× C-max printed for nimesulide, rifampicin, oxytetracycline
[3] = two classes made from the FDA DILI-concern labeling
[4] = ref livertox.nih.gov database; cited from earlier work

SMILES: CS(=O)(=O)Nc1ccc([N+](=O)[O-])cc1Oc1ccccc1 [Nimesulide]
- CHOP-GFP response, time dynamics relative to Srxn1-GFP [1]: initial CHOP-GFP response
- Srxn1-GFP response, time dynamics relative to CHOP-GFP [2]: delayed Srxn1-GFP response
- Severity class [3]: Sev.

SMILES: O=C(O)Cc1ccccc1Nc1c(Cl)cccc1Cl [Diclofenac]
- Metab (metabolic potential) [4]: YES

SMILES: Nc1nc(O)c2ncn(COC(CO)CO)c2n1 [Ganciclovir]
- Metab (metabolic potential) [4]: YES

SMILES: CCCc1cc(=O)[nH]c(=S)[nH]1 [Propylthiouracil]
- Metab (metabolic potential) [4]: YES
